# Key:
# Rattus norvegicus [1] = species: Rattus norvegicus; assay type: toxicity, organism-based, Sprague-Dawley; conditions: in vivo, ip, 24 h, tissue Blood, route intraperitoneal, time 1 day, vehicle .1 % RSA/SALINE
# Rattus norvegicus [2] = species: Rattus norvegicus; experiment: DrugMatrix - Regimen: Daily Repeat; assay type: toxicity, organism-based, Sprague-Dawley; design: regimen Daily Repeat, gender Male, age 6-8 weeks; conditions: in vivo
# [3] = 0 mg/kg, vehicle control, dose level Control
# [4] = po, 0 mg/kg, 72 h, tissue Plasma, route oral GAVAGE, dose level Control, time 3 day, vehicle 100 % WATER
# [5] = po, 0 mg/kg, 120 h, tissue Plasma, route oral GAVAGE, dose level Control, time 5 day, vehicle 100 % WATER
# [6] = ip, 0 mg/kg, […], tissue Plasma, route intraperitoneal, dose level Control, time 14 day, vehicle 100 % SALINE
# [7] = ip, 0 mg/kg, […], tissue Plasma, route intraperitoneal, dose level Control, time 28 day, vehicle 100 % SALINE
# [8] = po, 0 mg/kg, 72 h, tissue Plasma, route oral GAVAGE, dose level Control, time 3 day, […]
# [9] = po, 0 mg/kg, 120 h, tissue Plasma, route oral GAVAGE, dose level Control, time 5 day, […]
# [10] = po, […], 120 h, tissue Plasma, route oral GAVAGE, dose 7.5 mg/Kg, dose level Low, time 5 day, vehicle 100 % WATER
molecule,measurement,setting,value
"TNF-ALPHA, RAT",MONOCYTE,Rattus norvegicus [1]; [3],2.33%
same,MONOCYTE,"Rattus norvegicus [1]; […], dose 0.25 mg/Kg, dose level High",2.33%
CN(C)CCCN1c2ccccc2Sc2ccc(Cl)cc21 [CHLORPROMAZINE],ALBUMIN,Rattus norvegicus [2]; [4],4.23 G/DL
same,ALBUMIN,Rattus norvegicus [2]; [5],3.97 G/DL
same,ALBUMIN,"Rattus norvegicus [2]; po, 18 mg/kg, 72 h, tissue Plasma, route oral GAVAGE, dose level Low, time 3 day, vehicle 100 % WATER",4.2 G/DL
same,ALBUMIN,"Rattus norvegicus [2]; po, 18 mg/kg, 120 h, tissue Plasma, route oral GAVAGE, dose level Low, time 5 day, vehicle 100 % WATER",4.27 G/DL
same,ALBUMIN,"Rattus norvegicus [2]; po, 73 mg/kg, 72 h, tissue Plasma, route oral GAVAGE, dose level High, time 3 day, vehicle 100 % WATER",4.23 G/DL
same,ALBUMIN,"Rattus norvegicus [2]; po, 73 mg/kg, 120 h, tissue Plasma, route oral GAVAGE, dose level High, time 5 day, vehicle 100 % WATER",4.17 G/DL
LEAD (II) ACETATE,ALBUMIN,Rattus norvegicus [2]; [6],4.05 G/DL
same,URIC ACID,Rattus norvegicus [2]; [6],1.57 mg/dL
same,CHLORIDE,Rattus norvegicus [2]; [7],105.4 MEQ/L
same,MEAN CORPUSCULAR HEMOGLOBIN CONCENTRATION,"Rattus norvegicus [2]; po, 600 mg/kg, 72 h, tissue Blood, route oral GAVAGE, dose level High, time 3 day, vehicle 100 % SALINE",39.43 G/DL
ZIRCONIUM(IV) CHLORIDE,ALBUMIN,Rattus norvegicus [2]; [8],3.75 G/DL
same,HEMOGLOBIN,"Rattus norvegicus [2]; po, 0 mg/kg, 120 h, tissue Blood, route oral GAVAGE, dose level Control, time 5 day, […]",13.38 G/DL
same,ALBUMIN,Rattus norvegicus [2]; [9],4.12 G/DL
same,LIPASE,"Rattus norvegicus [2]; po, […], 72 h, tissue Plasma, route oral GAVAGE, dose 6.3 mg/Kg, dose level Low, time 3 day",9.33 u/L
same,LIPASE,"Rattus norvegicus [2]; po, […], 120 h, tissue Plasma, route oral GAVAGE, dose 6.3 mg/Kg, dose level Low, time 5 day",9.33 u/L
INSULIN HUMAN,LIPASE,"Rattus norvegicus [2]; iv, 0 mg/kg, 72 h, tissue Plasma, dose level Control, time 3 day, vehicle 100 % SALINE",9.33 u/L
same,HEMOGLOBIN,"Rattus norvegicus [2]; iv, 0 mg/kg, 120 h, tissue Blood, dose level Control, time 5 day, vehicle 100 % SALINE",13.42 G/DL
same,PHOSPHORUS,"Rattus norvegicus [2]; iv, […], 72 h, tissue Plasma, dose 0.56 mg/Kg, dose level High, time 3 day, vehicle 100 % SALINE",10.23 mg/dL
COBALT(II) ACETYLACETONATE,NEUTROPHIL,"Rattus norvegicus [2]; sc, 0 mg/kg, 72 h, tissue Blood, route subcutaneous, dose level Control, time 3 day, […]",16.5%
same,CHLORIDE,"Rattus norvegicus [2]; sc, 0 mg/kg, 120 h, tissue Plasma, route subcutaneous, dose level Control, time 5 day, […]",105.17 MEQ/L
"INTERLEUKIN 6, RAT",MONOCYTE,Rattus norvegicus [1]; [3],2.33%
C#Cc1cccc(Nc2ncnc3cc(OCCOC)c(OCCOC)cc23)c1 [ERLOTINIB],ALBUMIN,Rattus norvegicus [2]; [4],3.8 G/DL
same,ALBUMIN,Rattus norvegicus [2]; [5],3.8 G/DL
same,ALBUMIN,"Rattus norvegicus [2]; po, 58 mg/kg, 72 h, tissue Plasma, route oral GAVAGE, dose level Low, time 3 day, vehicle 100 % WATER",3.23 G/DL
same,ALBUMIN,"Rattus norvegicus [2]; po, 58 mg/kg, 120 h, tissue Plasma, route oral GAVAGE, dose level Low, time 5 day, vehicle 100 % WATER",3.37 G/DL
SODIUM ORTHOVANAD,CHLORIDE,"Rattus norvegicus [2]; po, 83 mg/kg, 120 h, tissue Plasma, route oral GAVAGE, dose level High, time 5 day, vehicle .5 % CMC",105 MEQ/L
same,HEMOGLOBIN,"Rattus norvegicus [2]; po, […], 120 h, tissue Blood, route oral GAVAGE, dose 8.3 mg/Kg, dose level Low, time 5 day, vehicle .5 % CMC",13.4 G/DL
same,CHLORIDE,"Rattus norvegicus [2]; po, […], 120 h, tissue Plasma, route oral GAVAGE, dose 8.3 mg/Kg, dose level Low, time 5 day, vehicle .5 % CMC",104.67 MEQ/L
GOLD SODIUM THIOMALATE,ALBUMIN,Rattus norvegicus [2]; [6],4.05 G/DL
same,URIC ACID,Rattus norvegicus [2]; [6],1.57 mg/dL
same,CHLORIDE,Rattus norvegicus [2]; [7],105.4 MEQ/L
Cc1ccc(NC(=O)c2ccc(CN3CCN(C)CC3)cc2)cc1Nc1nccc(-c2cccnc2)n1 [IMATINIB],ASPARTATE AMINOTRANSFERASE,Rattus norvegicus [2]; [4],83.17 u/L
same,ASPARTATE AMINOTRANSFERASE,Rattus norvegicus [2]; [5],80 u/L
same,ASPARTATE AMINOTRANSFERASE,"Rattus norvegicus [2]; po, 15 mg/kg, 72 h, tissue Plasma, route oral GAVAGE, dose level Low, time 3 day, vehicle 100 % WATER",89.67 u/L
same,ASPARTATE AMINOTRANSFERASE,"Rattus norvegicus [2]; po, 15 mg/kg, 120 h, tissue Plasma, route oral GAVAGE, dose level Low, time 5 day, vehicle 100 % WATER",89.67 u/L
same,ASPARTATE AMINOTRANSFERASE,"Rattus norvegicus [2]; po, 150 mg/kg, 72 h, tissue Plasma, route oral GAVAGE, dose level High, time 3 day, vehicle 100 % WATER",113 u/L
same,ASPARTATE AMINOTRANSFERASE,"Rattus norvegicus [2]; po, 150 mg/kg, 120 h, tissue Plasma, route oral GAVAGE, dose level High, time 5 day, vehicle 100 % WATER",119 u/L
Diet_Restriction,HEMATOCRIT,"Rattus norvegicus [2]; 0 mg/kg, […], tissue Blood, route none, dose level Control, time 14 day, vehicle 100 % UNTREATED",37.5%
same,LIPASE,"Rattus norvegicus [2]; 50 mg/kg, […], tissue Plasma, route none, dose level Low, time 14 day, vehicle 100 % UNTREATED",9.33 u/L
same,LIPASE,"Rattus norvegicus [2]; 60 mg/kg, 120 h, tissue Plasma, route none, dose level M1, time 5 day, vehicle 100 % UNTREATED",9.33 u/L
same,LIPASE,"Rattus norvegicus [2]; 75 mg/kg, 120 h, tissue Plasma, route none, dose level High, time 5 day, vehicle 100 % UNTREATED",9.33 u/L
"INTERLEUKIN 1 BETA, RAT",MONOCYTE,Rattus norvegicus [1]; [3],2.33%
TRANSPLATIN,CHLORIDE,Rattus norvegicus [2]; [7],105.4 MEQ/L
CN1CCN2c3ccccc3Cc3ccccc3C2C1 (centres undefined) [MIANSERIN],ERYTHROCYTE COUNT,"Rattus norvegicus [2]; po, 10 mg/kg, 72 h, tissue Blood, route oral GAVAGE, dose level Low, time 3 day, […]",5.59 x10E6/uL
COc1cccc2c1C(=O)c1c(O)c3c(c(O)c1C2=O)C[C@@](O)(C(=O)CO)C[C@@H]3O[C@H]1C[C@H](N)[C@@H](O)[C@H](C)O1 [EPIRUBICIN],POTASSIUM,"Rattus norvegicus [2]; iv, […], 120 h, tissue Plasma, dose 0.27 mg/Kg, dose level Low, time 5 day, vehicle 100 % SALINE",6.89 MEQ/L
MANGANESE CHLORIDE ANHYDROUS,NEUTROPHIL,"Rattus norvegicus [2]; po, 70 mg/kg, 72 h, tissue Blood, route oral GAVAGE, dose level Low, time 3 day, vehicle 100 % WATER",9.33%
same,LIPASE,"Rattus norvegicus [2]; po, 70 mg/kg, 120 h, tissue Plasma, route oral GAVAGE, dose level Low, time 5 day, vehicle 100 % WATER",7.33 u/L
CCOC(=O)C1=C(C)NC(C)=C(C(=O)OC)C1c1cccc([N+](=O)[O-])c1 (centres undefined) [NITRENDIPINE],ALBUMIN,Rattus norvegicus [2]; [8],3.97 G/DL
same,ALBUMIN,Rattus norvegicus [2]; [9],4.12 G/DL
same,ALBUMIN,"Rattus norvegicus [2]; po, 10 mg/kg, 72 h, tissue Plasma, route oral GAVAGE, dose level Low, time 3 day, […]",3.87 G/DL
same,ALBUMIN,"Rattus norvegicus [2]; po, 10 mg/kg, 120 h, tissue Plasma, route oral GAVAGE, dose level Low, time 5 day, […]",4.27 G/DL
same,MEAN CORPUSCULAR HEMOGLOBIN CONCENTRATION,"Rattus norvegicus [2]; po, 1100 mg/kg, 72 h, tissue Blood, route oral GAVAGE, dose level High, time 3 day, […]",38.67 G/DL
same,ALBUMIN,"Rattus norvegicus [2]; po, 1100 mg/kg, 72 h, tissue Plasma, route oral GAVAGE, dose level High, time 3 day, […]",3.57 G/DL
same,ALBUMIN,"Rattus norvegicus [2]; po, 1100 mg/kg, 120 h, tissue Plasma, route oral GAVAGE, dose level High, time 5 day, […]",3.6 G/DL
CNC1=Nc2ccc(Cl)cc2C(c2ccccc2)=[N+]([O-])C1 [CHLORDIAZEPOXIDE],ALBUMIN,Rattus norvegicus [2]; [4],4.18 G/DL
same,ALBUMIN,Rattus norvegicus [2]; [5],4.28 G/DL
same,ALBUMIN,"Rattus norvegicus [2]; po, […], 72 h, tissue Plasma, route oral GAVAGE, dose 7.5 mg/Kg, dose level Low, time 3 day, vehicle 100 % WATER",4.27 G/DL
same,ALANINE AMINOTRANSFERASE,Rattus norvegicus [2]; [10],41.33 u/L
same,ALBUMIN,Rattus norvegicus [2]; [10],4.23 G/DL
NC(=O)N1c2ccccc2C=Cc2ccccc21 [CARBAMAZEPINE],ALBUMIN,"Rattus norvegicus [2]; po, 30 mg/kg, 72 h, tissue Plasma, route oral GAVAGE, dose level Low, time 3 day, vehicle .5 % CMC",4.47 G/DL
same,ALBUMIN,"Rattus norvegicus [2]; po, 30 mg/kg, 120 h, tissue Plasma, route oral GAVAGE, dose level Low, time 5 day, vehicle .5 % CMC",4.27 G/DL
same,ALBUMIN,"Rattus norvegicus [2]; po, 490 mg/kg, 72 h, tissue Plasma, route oral GAVAGE, dose level High, time 3 day, vehicle .5 % CMC",4.27 G/DL
same,ALBUMIN,"Rattus norvegicus [2]; po, 490 mg/kg, 120 h, tissue Plasma, route oral GAVAGE, dose level High, time 5 day, vehicle .5 % CMC",4.37 G/DL
CCN(CC)CCOc1ccc(/C(=C(/Cl)c2ccccc2)c2ccccc2)cc1 [ENCLOMIPHENE],ABSOLUTE MONOCYTE,"Rattus norvegicus [2]; po, 3 mg/kg, 72 h, tissue Blood, route oral GAVAGE, dose level Low, time 3 day, vehicle .5 % CMC",162 CELLS/uL
same,HEMOGLOBIN,"Rattus norvegicus [2]; po, 250 mg/kg, 120 h, tissue Blood, route oral GAVAGE, dose level M1, time 5 day, vehicle .5 % CMC",16.2 G/DL
same,LIPASE,"Rattus norvegicus [2]; po, 500 mg/kg, 72 h, tissue Plasma, route oral GAVAGE, dose level High, time 3 day, vehicle .5 % CMC",7.33 u/L
COc1ccc(C(CN(C)C)C2(O)CCCCC2)cc1 (centres undefined) [VENLAFAXINE],ALBUMIN,Rattus norvegicus [2]; [4],4.05 G/DL
same,ALBUMIN,Rattus norvegicus [2]; [5],4.38 G/DL
same,ALBUMIN,"Rattus norvegicus [2]; po, 22 mg/kg, 72 h, tissue Plasma, route oral GAVAGE, dose level Low, time 3 day, vehicle 100 % WATER",4.47 G/DL
same,ALBUMIN,"Rattus norvegicus [2]; po, 22 mg/kg, 120 h, tissue Plasma, route oral GAVAGE, dose level Low, time 5 day, vehicle 100 % WATER",4.57 G/DL
same,ALBUMIN,"Rattus norvegicus [2]; po, 320 mg/kg, 72 h, tissue Plasma, route oral GAVAGE, dose level High, time 3 day, vehicle 100 % WATER",4.17 G/DL
same,ALBUMIN,"Rattus norvegicus [2]; po, 320 mg/kg, 120 h, tissue Plasma, route oral GAVAGE, dose level High, time 5 day, vehicle 100 % WATER",4.17 G/DL
CN1[C@@H]2CC[C@H]1C[C@@H](OC(=O)C(CO)c1ccccc1)C2 (some centres undefined) [ATROPINE],MONOCYTE,"Rattus norvegicus [2]; po, […], 72 h, tissue Blood, route oral GAVAGE, dose 2.3 mg/Kg, dose level Low, time 3 day, vehicle 100 % WATER",1.33%
O=C1NC(=O)C(c2ccccc2)(c2ccccc2)N1 [PHENYTOIN],ALBUMIN,Rattus norvegicus [2]; [4],3.78 G/DL
same,ALBUMIN,Rattus norvegicus [2]; [5],4.33 G/DL
same,ALBUMIN,"Rattus norvegicus [2]; po, 46 mg/kg, 72 h, tissue Plasma, route oral GAVAGE, dose level Low, time 3 day, vehicle 100 % WATER",3.93 G/DL
same,ALBUMIN,"Rattus norvegicus [2]; po, 46 mg/kg, 120 h, tissue Plasma, route oral GAVAGE, dose level Low, time 5 day, vehicle 100 % WATER",4.3 G/DL

# Reference: ChEMBL document CHEMBL3885881, “DrugMatrix”
